Test results as given in ChEMBL document CHEMBL1149860, “Synthesis and neuropharmacological characterization of 2-O-substituted apomorphines” (Bioorg Med Chem, 2008).

The chains behind the UniProt entries cited, without tags or fusion partners.
UniProt Q61616, whole entry: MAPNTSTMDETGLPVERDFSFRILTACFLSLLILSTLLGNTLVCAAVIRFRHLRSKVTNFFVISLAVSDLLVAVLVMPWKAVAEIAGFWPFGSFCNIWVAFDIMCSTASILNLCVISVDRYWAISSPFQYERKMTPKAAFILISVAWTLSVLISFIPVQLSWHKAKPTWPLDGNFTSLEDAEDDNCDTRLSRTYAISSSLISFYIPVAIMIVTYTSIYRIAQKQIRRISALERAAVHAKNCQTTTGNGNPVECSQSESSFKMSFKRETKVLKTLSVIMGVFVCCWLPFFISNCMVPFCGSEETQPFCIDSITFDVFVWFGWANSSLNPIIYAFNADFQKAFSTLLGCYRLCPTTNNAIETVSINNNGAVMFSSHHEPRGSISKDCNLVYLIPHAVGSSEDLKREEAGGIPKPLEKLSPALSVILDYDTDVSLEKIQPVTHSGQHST

Molecular target: D(1A) dopamine receptor (Mus musculus, UniProt Q61616)
Assay: Displacement of [3H]SCH23390 from dopamine D1 receptor in mouse Ltk- fibroblast cells
Type: cell-based

CN1CCc2cccc3c2[C@H]1Cc1ccc(O)c(O)c1-3 [APOMORPHINE]
Ki: 101 nM
